Results published in patent publication US11844811B2, “Methods and compositions for alleviating respiratory dysfunction” (MYFITSTRIP LLC, priority 2018, dated 2023).

Conditions: subject 2, 1,000 mg KNO3 (12 mgNO3/Kg) at 10:00

In the case of `O=[N+]([O-])[O-].[K+]` [KNO3, potassium nitrate], the “Salivary NO2” value (time 1:00PM) was less than 435 µM and the “Salivary NO2” value (time 11:00) was 435 µM.

Read-outs that look alike come from different tables or passages of the source.
